Reference: US20080095849A1, “Peptide sustained release compositions and uses thereof” (Amgen Inc., priority 2005, published 2008)

Legend:
[1] = Plasma concentration-time profile after subcutaneous injection of microparticles into male Sprague-Dawley rats; format: in vivo, rat; settings: solution bolus of Peptide A
[2] = Half-life of B1 peptide antagonists in rat plasma; format: in vivo
Description: As mentioned, the compositions disclosed herein enable prophylactic, therapeutic, and/or diagnostic use of certain classes of active agents some of which were previously considered too unstable in vivo to be used effectively. For example, the known shortcomings in known B1 peptide antagonists with respect to their therapeutic use are surmountable by formulating them in compositions of the present invention that maximize antagonist activity and specificity while prolonging efficacious half-life in vivo. More specifically, the half-life of Peptide A (SEQ ID NO: 15), Peptide B (SEQ ID NO:37) and Peptide C (SEQ ID NO:36) is about 3 hours, 40 minutes, and 40 minutes, respectively, in rat plasma. The accelerated sustained release and/or extended circulating half-lives of the B1 peptides formulated as described herein results in a much more desirable exposure window and may provide better efficacy in vivo as compared to common formulations of these compounds.

Substance: DOrn Lys Arg Pro Hyp Gly Cpg Ser DTic Cpg [Peptide A]
- release profile duration of Peptide A (plasma concentration-time profile) [1]: 8 h
- half-life in rat plasma [2]: about 3 hours

Substance: LysLys Arg Pro Hyp Gly Cpg Ser DTic Cpg [Peptide C]
- half-life in rat plasma [2]: ~40 min
